Data set [1] deals with immature pear fruits. Format: in vivo, pear (cv. 'Recchia falsa'). Conditions: 100 µL peptide at 50 and 250 µM, 5 days at room temperature, six fruits per peptide. Here is the method: (§1) The possible toxicity of the selected peptides was evaluated using immature pear fruits (cv. ‘Recchia falsa’), and horse erythrocyte cells, respectively, as plant and animal cell models. Briefly, six fruits for each peptide were pricked to approximately 5 mm deep and inoculated with 100 µL of the corresponding peptide at 50 and 250 µM concentrations. Fruits were kept in a chamber at room temperature for 5 days and repeatedly examined for the development of lesions. The peptide toxicity was measured as lesion diameter. Erythrocytes from a horse blood sample (provided by the University of Bari, Department of Veterinary Medicine, Valenzano, Italy) were used for the hemolytic assay. The erythrocytes were challenged with AMPs at 50 and 250 µM for 3 h and their possible hemolytic activity was observed under light microscope.

Data set [2] concerns Xanthomonas campestris pv. campestris. Briefly: Fluorescence microscopy LIVE/DEAD BacLight (SYTO9/PI). Format: cell-based, Xanthomonas campestris pv. campestris strain CFBP 1710. Conditions: KL29 at 100, 50, 25, 12.5, 6.25, 2 µM, 1 h. Here is the method: The bactericidal activity of the selected peptides (GF19, FG22, IL14, and KL29) was assessed by a test contact for 24 h, as described (Section 2.3), coupled with v-qPCR assay using the PMAxx™ (Biotium, Rome, Italy). PMAxx™ is a photo-reactive dye that binds to DNA with high affinity; upon cell lysis, it covalently attaches to disrupted DNA that cannot be amplified by PCR. This unique feature makes PMAxx™ extremely useful in selective detection of bacterial cells with intact plasma membranes by qPCR. Briefly, after 24 h at 25 °C, 200 µL of the mixture was transferred to a new tube and treated with PMAxx at a final concentration of 7.5 μM. Subsequently, samples were incubated in the dark at room temperature for 8 min, followed by photoactivation for 15 min. […] The v-qPCR cycles consisted of an initial denaturation step of 95 °C for 5 min; 45 cycles of 95 °C for 30 s and 60 °C for 30 s with fluorescence readings at each cycle. […] Photomicrographs were taken with a Nikon E800 microscope using a fluorescein isothiocyanate (480/30 excitation filter, DM505 dichroic mirror, 535/40 emission filter) and tetramethyl rhodamine isocyanate (546/10 excitation filter, DM575 dichroic mirror, 590 emission filter) fluorescence filter sets.

The subject of data set [3] is Erwinia amylovora. Briefly: Transmission electron microscopy of treated cells. Format: cell-based, Erwinia amylovora strain PGL Z1. Conditions: 15 min at room temperature. Here is the method:
Aliquots of E. amylovora suspensions were incubated with the KL29 for 15 min at room temperature to investigate peptide antibacterial modes of action (lytic and non-lytic). E. amylovora suspensions treated with 0.5 mg/mL of streptomycin (bacteriostatic antibiotic), and ampicillin (bactericidal antibiotic) were used as controls. Preparations were observed under TEM (FEI MORGAGNI 282D, Hillsboro, OR, USA) by the dip method: the carbon coated copper/rhodium grids were incubated with treated and untreated bacterial suspension for 2 min, and then rinsed with 200 μL of distilled water. Negative staining was obtained by floating the grids on 200 μL of 0.5 % w/v UA-zero EM STAIN (Agar-Scientific Ltd., Stansted, UK) solution and observing them under the EM using an accelerating voltage of 80 kV.

Data set [4] relates to horse erythrocyte cells. Format: cell-based. The note with it: peptide 50 and 250 µM, 3 h, light microscope. Here is the method: as §1
The test system of data set [5] is Erwinia amylovora. Conditions: 24 h at 25 °C in YPG, three replicates. Here is the method:
(§2) The bacterial material consisted of E. amylovora strain PGL Z1, isolated in 2013 from pear in Apulia region (Italy), and Xanthomonas campestris pv. campestris strain CFBP 1710 (X. campestris), isolated in 1975 from Brassica oleracea var. botrytis in France, which was used as a control to investigate the bactericidal activity and action mode of AMPs against two different bacteria. The bacterial strains were cultured on yeast extract peptone glucose agar (YPGA) and broth (YPG) media, consisting of 0.5% yeast extract, 0.5% peptone, 1% glucose and 1.5% agar. E. amylovora and X. campestris cell suspensions were prepared in sterile distilled water and the suspensions were adjusted to an optical density at 600 nm (OD600) of 0.1, which corresponds approximately to 10^8 CFU/mL.
Briefly, 20 µL from each concentration (50 and 250 µM) was mixed with 180 µL of E. amylovora suspension (YPG) and incubated at 25 °C for 24 h. Six OD600 nm measures were taken over 24 h using the NanoDrop™ One/OneC Microvolume UV-Vis Spectrophotometer (ThermoFisher Scientific, Waltham, MA, USA).

For data set [6], the system named is Erwinia amylovora. The experiment in a line: Spot test screening of AMPs on plates. Format: cell-based, Erwinia amylovora strain PGL Z1. Also on record: key to Spot test result at 1 mM / Spot test result at 500 µM / Spot test result at 250 µM / Spot test result at 100 µM / Spot test result at 50 µM / Spot test result at 25 µM / Spot test result at 12.5 µM: +: Clear plaque formation; -: no plaque formation. Here is the method:
as §2
The nine AMPs were screened using the spot test to select those with the best antibacterial activity against E. amylovora. Briefly, 300 µL of E. amylovora suspension (10^8 CFU/mL) was poured into the plates and maintained at room temperature for 15 min. Subsequently, 5 μL from each peptide at different concentrations (1000, 500, 250, 100, 50, 25 and 12.5 μM) was spotted onto the surface of the plates, followed by overnight incubation at 25 °C. Sterile distilled water was spotted in the plates as a control.
Supplementary Table S1. Results of the spot tests for the nine antimicrobial peptides used against Erwinia
Ascaphin-8 GF-19 + + + + + - -
DASamP1 FF-13 + + + - - - -
DASamP2 IL-14 + + + + + - -
Lycotoxin I IL-25 + + + + - - -
Maculatin 1.3 GF-21 + + + - - - -
Piscidin 1 FG-22 + + + + + - -
BP178 KL-29 + + + + + + -
RIJK2 RV-12 + + + - - - -
+: Clear plaque formation; -: no plaque formation.

Data set [7] has as its system Erwinia amylovora. The experiment in a line: Fluorescence microscopy LIVE/DEAD BacLight (SYTO9/PI). Format: cell-based, Erwinia amylovora strain PGL Z1. The note with it: 1 h; for % of viability: calculated from SYTO9 and PI counts. Here is the method: The bactericidal activity of the selected peptides (GF19, FG22, IL14, and KL29) was assessed by a test contact for 24 h, as described (Section 2.3), coupled with v-qPCR assay using the PMAxx™ (Biotium, Rome, Italy). PMAxx™ is a photo-reactive dye that binds to DNA with high affinity; upon cell lysis, it covalently attaches to disrupted DNA that cannot be amplified by PCR. This unique feature makes PMAxx™ extremely useful in selective detection of bacterial cells with intact plasma membranes by qPCR. Briefly, after 24 h at 25 °C, 200 µL of the mixture was transferred to a new tube and treated with PMAxx at a final concentration of 7.5 μM. Subsequently, samples were incubated in the dark at room temperature for 8 min, followed by photoactivation for 15 min. Genomic DNA of all samples was extracted using the cetyltrimethylammonium bromide (CTAB) method. v-qPCR was carried out in a thermocycler apparatus (Bio-Rad CFX96, BioRad, Milan, Italy), using Ea-lsc primers and conditions reported in Laforest et al.. The v-qPCR cycles consisted of an initial denaturation step of 95 °C for 5 min; 45 cycles of 95 °C for 30 s and 60 °C for 30 s with fluorescence readings at each cycle. For the FM assay, aliquots of E. amylovora suspension were incubated with 50 and 250 μM of selected peptides for 1 h at room temperature. The same protocol was used for X. campestris at different concentrations (100, 50, 25, 12.5, 6.25, 2 μM) using KL29 peptide, known for its potent bactericidal activity against X. campestris. The LIVE/DEAD ®BacLight™ viability kit (ThermoFisher Scientific, Milan, Italy) was used according to the manufacturer’s recommendation to assess the integrity of bacteria cells treated with the peptides at 1 h post-infection (Stocks, 2004). Briefly, 9 μL of sample was mixed with 0.5 μL of SYTO9 and 0.5 μL of propidium iodide (PI) for 15 min at room temperature in the dark. Photomicrographs were taken with a Nikon E800 microscope using a fluorescein isothiocyanate (480/30 excitation filter, DM505 dichroic mirror, 535/40 emission filter) and tetramethyl rhodamine isocyanate (546/10 excitation filter, DM575 dichroic mirror, 590 emission filter) fluorescence filter sets.
Supplementary Table S2. The statistical analysis consisted of counting the coloured spo ts (green: SYTO9 and red: PI) in the different channels of 10 replicas for the two concentrations of each antimicrobial peptide and the relative percentages of viable cells is calculated.
250 µM 50 µM % of viability
(1 picture or pasted object on this page, not shown here)

Data set [8] has as its system Erwinia amylovora. The experiment in a line: In vivo antibacterial activity on inoculated immature pear fruits. Details: species or system Erwinia amylovora on pear fruits (cv. 'Recchia falsa'). The note with it: immature pears, 6 days at 25 °C, eight replicates. Here is the method: To evaluate the in vivo antibacterial activity of selected AMPs, immature pear fruits (cv. ‘Recchia falsa’) were inoculated with E. amylovora and AMPs were applied. Briefly, ten-week-old pears were disinfected by immersion in a 70% ethanol solution for 2 min and then rinsed 3 times in sterile distilled water. Disinfected fruits were pricked to approximately 5 mm deep, with a sterile micropipette tip and inoculated with 20 µL of E. amylovora suspension (10^8 CFU/mL). Once the fruits had absorbed the bacteria, two concentrations of peptides (50 and 250 µM) were used; 20 µL of the concentration was introduced into the inoculation site and incubated in a humid chamber at 25 °C for 6 days. Fruits inoculated with sterile water and with E. amylovora suspension were included as controls. The experiment consisted of eight replicates per treatment, and symptoms were recorded at 6 days post-infection. The symptoms developed in immature pears (i.e., necrosis or bacterial exudates) were evaluated by measuring the diameter of necrotic lesions. The data were then analyzed using variance analysis (ANOVA), followed by Duncan’s multiple range test (α = 0.05), using SPSS statistical software (version 24.0, IBM, Armonk, N.Y., USA). All data were presented as mean values ± standard deviation (SD).

Entries after “also recorded” stand apart in the source; their conditions may differ. Read-outs that look alike come from different tables or passages of the source.

Results on 1 compound are retold here after publication PMC9824012, “Exploring Antimicrobial Peptides Efficacy against Fire Blight (Erwinia amylovora)” (Plants, 2022).

For the compound `CC[C@H](C)[C@H](NC(=O)CNC(=O)[C@H](C)NC(=O)[C@@H]1CCCN1C(=O)CNC(=O)[C@H](C)NC(=O)[C@H](CC(C)C)NC(=O)[C@H](Cc1ccc(O)cc1)NC(=O)[C@H](CCCCN)NC(=O)[C@H](CC(C)C)NC(=O)[C@@H](NC(=O)[C@H](CCCCN)NC(=O)[C@H](CCCCN)NC(=O)[C@H](Cc1ccccc1)NC(=O)[C@H](CC(C)C)NC(=O)[C@H](CCCCN)NC(=O)[C@@H](N)CCCCN)[C@@H](C)CC)C(=O)NCC(=O)N[C@@H](CCCCN)C(=O)N[C@@H](Cc1ccccc1)C(=O)N[C@@H](CC(C)C)C(=O)N[C@@H](Cc1c[nH]cn1)C(=O)N[C@@H](CO)C(=O)N[C@@H](C)C(=O)N[C@@H](CCCCN)C(=O)N[C@@H](CCCCN)C(=O)N[C@@H](CC(=O)O)C(=O)N[C@@H](CCC(=O)O)C(=O)N[C@@H](CC(C)C)C(=O)O` [KL29, BP178], in data set [1], the “Toxicity (hypersensitive or cytotoxic activity) on pear fruits (in words)” value is “no impact on animal or plant cells; also recorded: toxicologically safe for plant and animal cells”. The “Lytic activity on X. campestris by fluorescence microscopy (in words)” value in data set [2] is on record as “greater lytic activity at high peptide concentrations”. In addition, the “TEM morphology of treated E. amylovora cells (in words)” value was “damaged cell walls and the decomposition of inner structures” in data set [3] (peptide 50 µM); “low permeabilization of the outer membrane, cytoplasmic condensation, and loss of interior appearance” in data set [3] (peptide at high concentration (250 µM)). The “Toxicity (hemolytic or cytotoxic activity) on horse erythrocytes (in words)” value in data set [4] is “no impact on animal or plant cells; also recorded: toxicologically safe for plant and animal cells”. Besides, the “Inhibition of E. amylovora growth (OD600)” value in data set [5] (peptide 50 µM) is ~73%; in data set [5] (peptide 250 µM), “inhibited all bacterial cell growth”. Further, the “Spot test result at 12.5 µM” value in data set [6] (5 µL peptide at 12.5 µM spotted on plate with E. amylovora 10^8 CFU/mL, overnight at 25 °C) is recorded as “-”. In addition, the “Spot test result at 25 µM” value in data set [6] (5 µL peptide at 25 µM spotted on plate with E. amylovora 10^8 CFU/mL, overnight at 25 °C) was “+”. For the same compound, the “Spot test result at 50 µM” value in data set [6] (5 µL peptide at 50 µM spotted on plate with E. amylovora 10^8 CFU/mL, overnight at 25 °C) is given as “+”. In addition, the “Spot test result at 100 µM” value in data set [6] (5 µL peptide at 100 µM spotted on plate with E. amylovora 10^8 CFU/mL, overnight at 25 °C) is listed as “+”. Further, the “Spot test result at 250 µM” value in data set [6] (5 µL peptide at 250 µM spotted on plate with E. amylovora 10^8 CFU/mL, overnight at 25 °C) is reported as “+”. In addition, the “Spot test result at 500 µM” value in data set [6] (5 µL peptide at 500 µM spotted on plate with E. amylovora 10^8 CFU/mL, overnight at 25 °C) is on record as “+”. Besides, in data set [6] (5 µL peptide at 1 mM spotted on plate with E. amylovora 10^8 CFU/mL, overnight at 25 °C), the “Spot test result at 1 mM” value is recorded as “+”. In addition, in data set [6] (peptide 50 µM), the “Spot test, killing of E. amylovora at 50 µM (in words)” value is recorded as “could kill E. amylovora”. The “Fluorescence observed in treated E. amylovora cells (in words)” value in data set [7] (peptide 50 µM) is reported as “no green fluorescence”; in data set [7] (peptide 250 µM) it was “green cells were observed”. Moreover, the entries for the “% of viability” value in data set [7] (peptide 50 µM) and in data set [7] (peptide 250 µM) were 0% and 9%, respectively. Also, the entries for the “Reduction of fire blight symptoms (necrotic lesion diameter)” value in data set [8] (20 µL peptide at 50 µM into inoculation site) and in data set [8] (20 µL peptide at 250 µM into inoculation site) were 74% and 85%, respectively.
